We go through one compound from ChEMBL document CHEMBL3808365, “Potent and Selective CK2 Kinase Inhibitors with Effects on Wnt Pathway Signaling in Vivo” (ACS Med Chem Lett, 2016).

Amino acid sequences for entries named in this document (tags omitted). A change or cut given only in a name is not applied to a line headed by its entry.
UniProt Q9H2X6: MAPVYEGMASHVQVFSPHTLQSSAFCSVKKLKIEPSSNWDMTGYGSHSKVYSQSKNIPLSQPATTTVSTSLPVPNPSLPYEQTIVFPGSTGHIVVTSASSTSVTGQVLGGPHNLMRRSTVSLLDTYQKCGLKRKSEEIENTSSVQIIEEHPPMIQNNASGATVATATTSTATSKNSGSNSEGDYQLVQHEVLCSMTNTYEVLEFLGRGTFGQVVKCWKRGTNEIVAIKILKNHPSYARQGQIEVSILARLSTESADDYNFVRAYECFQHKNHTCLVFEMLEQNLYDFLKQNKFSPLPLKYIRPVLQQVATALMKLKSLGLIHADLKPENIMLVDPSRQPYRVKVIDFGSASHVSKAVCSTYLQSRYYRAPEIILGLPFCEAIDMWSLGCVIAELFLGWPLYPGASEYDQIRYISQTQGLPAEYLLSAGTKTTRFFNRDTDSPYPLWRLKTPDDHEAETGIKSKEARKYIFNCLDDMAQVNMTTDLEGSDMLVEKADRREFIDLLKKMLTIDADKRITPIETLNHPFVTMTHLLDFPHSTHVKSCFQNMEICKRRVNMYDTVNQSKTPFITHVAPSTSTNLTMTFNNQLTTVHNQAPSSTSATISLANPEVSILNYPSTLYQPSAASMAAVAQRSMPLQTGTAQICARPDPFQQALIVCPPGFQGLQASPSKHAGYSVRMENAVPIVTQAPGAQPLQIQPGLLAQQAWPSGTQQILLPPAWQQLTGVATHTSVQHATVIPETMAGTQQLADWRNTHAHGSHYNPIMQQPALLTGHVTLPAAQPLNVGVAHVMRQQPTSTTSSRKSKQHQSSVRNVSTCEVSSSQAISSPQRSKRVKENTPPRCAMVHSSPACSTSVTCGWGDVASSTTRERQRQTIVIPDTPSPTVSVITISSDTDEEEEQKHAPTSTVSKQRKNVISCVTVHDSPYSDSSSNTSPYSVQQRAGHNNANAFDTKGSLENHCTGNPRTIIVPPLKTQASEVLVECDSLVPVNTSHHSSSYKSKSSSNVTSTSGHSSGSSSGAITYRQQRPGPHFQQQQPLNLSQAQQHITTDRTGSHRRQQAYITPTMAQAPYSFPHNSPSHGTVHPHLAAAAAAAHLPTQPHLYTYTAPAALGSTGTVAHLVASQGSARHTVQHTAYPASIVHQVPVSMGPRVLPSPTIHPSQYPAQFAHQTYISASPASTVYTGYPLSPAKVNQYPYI

Structures are written as SMILES.

The target of the assay is Homeodomain-interacting protein kinase 2 (Homo sapiens, UniProt Q9H2X6). The experiment in a line: Inhibition of Hipk2 (unknown origin) by quantitative PCR.

Turning to `CC(=O)Nc1cc(Nc2cc(NC3CC3)n3ncc(C#N)c3n2)ccc1N(C)CCN`, the 50% inhibitory concentration (IC50) (as a rule, the midpoint of a concentration-inhibition curve) is 40 nM.
